Reference: patent US7445920B2, “Member of the lysyl oxidase gene family” (Wyeth, priority 2000, dated 2008)

Amino acid sequences for entries named in this document (tags omitted).
UniProt Q92731, whole entry: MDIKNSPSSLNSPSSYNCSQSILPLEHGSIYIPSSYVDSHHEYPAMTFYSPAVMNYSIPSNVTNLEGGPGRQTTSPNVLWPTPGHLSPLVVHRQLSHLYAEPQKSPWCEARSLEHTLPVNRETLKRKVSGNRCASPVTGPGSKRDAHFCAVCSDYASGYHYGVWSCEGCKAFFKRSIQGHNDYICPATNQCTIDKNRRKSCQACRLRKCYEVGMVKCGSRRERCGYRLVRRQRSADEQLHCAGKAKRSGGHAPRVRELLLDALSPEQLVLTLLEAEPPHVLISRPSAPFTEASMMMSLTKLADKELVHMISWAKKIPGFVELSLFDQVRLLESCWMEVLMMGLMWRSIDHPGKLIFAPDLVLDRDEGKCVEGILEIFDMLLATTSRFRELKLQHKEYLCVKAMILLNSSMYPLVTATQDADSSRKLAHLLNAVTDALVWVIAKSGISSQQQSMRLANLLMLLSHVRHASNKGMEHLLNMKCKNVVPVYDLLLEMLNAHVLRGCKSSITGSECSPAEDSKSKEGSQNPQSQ

Experiments:
ERβ [1] = biological target: T1, ERβ (Homo sapiens, UniProt Q92731); experiment: Differential display of RNA from HUVEC expressing human ERβ (Ad5ERβ); conditions: 100 nM 17β-estradiol vs DMSO vehicle; HUVEC with Ad5ERβ; 30 U/ml IL-1β
ERβ [2] = biological target: T1, ERβ; experiment: EER-7 mRNA expression (Northern blot) in HUVEC infected with adenovirus expressing human ERβ; assay type: cell-based; design: replication-defective adenovirus expressing human full length wild-type ERα (Ad5Eα) or ERβ (Ad5ERβ); expressed in transfected cells; host or cells: HUVEC infected with replication-defective adenovirus Ad5ERβ, MOI about 300; conditions: HUVEC cells expressing human ERβ, FIG. 3

Compound: C[C@]12CC[C@@H]3c4ccc(O)cc4CC[C@H]3[C@@H]1CC[C@@H]2O [17β-estradiol]
- Induction of band #7 (EER-7 fragment, approx. 320 bp) in differential display (ERβ [1]): very strong induction
- EER-7 expression through the ERβ receptor (ERβ [2]): stimulated EER-7 expression
